In the library only some 1.5% were active in any assay of this set; here they are far more common.
INS-1E GSIS act = GLuc luminescence reporter in INS-1E cells, primary screen for activators of glucose-dependent secretion of insulin. INS-1E GLuc reporter insulin secretion, 2-3 h. activation, % at 16.6 µM. hit rate 0.61% among 370,000;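 active = lowest replicate activation of at least 40%, so every replicate reaches that level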
RAD54 branch = inhibitors of human RAD54 branch migration, primary screen, biochemical, fluorescence, single point; DNA repair and recombination protein RAD54-like (Homo sapiens), Q92698; RAD54 Holliday junction branch migration, FAM/BHQ fluorescence; inhibition, % at 10.4 µM; hit rate 0.14% among 360,000; AID 602329, 2012;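 active = mean normalized replicate activity at least 40 and at least half of replicates scoring 40 or more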;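 note: inhibitors cause a drop in the FAM fluorescence signal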
RAD52 inh = RAD52 DNA annealing inhibitors, primary screen, biochemical, FRET, single point, set 2 | recombinant RAD52 DNA annealing, FRET fluorescence | inhibition, % at 18.7 µM | hit rate 0.46% among 360,000;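 active = every replicate showing at least 50% inhibition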
UUG fidelity = modulators of yeast start codon fidelity, primary screen, whole organism, S. cerevisiae, single point, plate reader. S. cerevisiae UUG-firefly luciferase reporter, luminescence/redox ratio. activity score, % at 18.7 µM. hit rate 0.13% among 350,000;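 active = replicate mean at a twofold rise or more, about +100% in these data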;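 also: firefly luciferase made from a UUG start codon reports start codon fidelity; reporter light over untreated wells divided by growth signal over untreated wells; some hits fall short of that in this replicate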
CASP6 VEID inh = human caspase-6 inhibitors, primary screen, biochemical, VEID-R110 fluorescence, single point, set 2. inhibition, % at 12.5 µM. hit rate 0.53% among 350,000. P55212. purified caspase-6, Z-VEID-R110 cleavage fluorescence;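 active = mean inhibition across replicates at least about 35%, with every replicate also reaching that limit, limit read from the data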
PglD inh = C. jejuni PglD acetyltransferase inhibitors, primary screen, biochemical, DTNB colorimetric, single point; UDP-N-acetylbacillosamine N-acetyltransferase PglD (Campylobacter jejuni); purified PglD enzyme, DTNB colorimetric CoA detection; inhibition, % at 12.5 µM; hit rate 0.098% among 360,000; in the data active = inhibition above about 16%, passing the limit was not always enough
Hits are given with their value; i = inactive; nt = no result; ! = repeats disagree.

SMILES	INS-1E GSIS act	RAD54 branch	RAD52 inh	UUG fidelity	CASP6 VEID inh	PglD inh
CC1(Cc2cc(Cl)ccc2C(F)(F)F)C(=O)Nc2cc(F)ccc21 (configuration not stated)	nt	i	nt	i	nt	i
O=C(O)c1cccc(-n2cccc2/C=C2\SC(=O)N(Cc3ccccc3F)C2=O)c1	i	nt	i	nt	86	nt
O=C(CN1C(=O)S/C(=C/c2cccn2-c2ccc(O)cc2)C1=O)N1CCCC1	i	i	i	i	i	i
O=C(O)c1cccc(-n2cccc2/C=C2/SC(=O)N(CC(=O)N3CCCC3)C2=O)c1	i	i	i	i	40	i
CCNC(=S)NNC(=O)c1cc(CC(C)C)nc2ccccc12	nt	i	nt	i	nt	i
COc1ccc(CCN(C)C(=O)CSc2ncnc3sccc23)cc1OC	78	nt	i	nt	i	nt
COc1ccc(CCN(C)C(=O)Cn2c(=O)oc3ccccc32)cc1OC	70	i	i	i	i	i
COc1ccccc1CNC(=O)CCn1c(=O)oc2ccccc21	i	i	i	i	i	i
COc1ccccc1Cn1c(=O)oc2ccccc21	43	i	i	i	i	i
COc1ccc(CCNC(=O)Cn2c(=O)oc3ccccc32)cc1OC	nt	i	nt	i	nt	i
CCN(CC)C(=O)[C@H]1CC(CC(=O)NC(C)(C)C)C(=O)N2CCc3c([nH]c4ccccc34)[C@]12C (some centres not stated)	i	i	i	i	i	i
Cc1ccc(NS(=O)(=O)c2cc(C(=O)NCc3ccncc3)ccc2C)cc1	i	i	i	i	i	i
CCOC(=O)c1ccc(S(=O)(=O)N2CCC(C(=O)Nc3nnc(C)o3)CC2)cc1	58	i	i	i	i	i
CSc1ncccc1C(=O)Nc1nccs1	i	i	i	i	i	i
Cc1ccc(-c2ccc(C3[C@@H]4CN(Cc5ccccc5)C[C@H]3N4)cc2)cc1 (some centres not stated)	i	nt	nt	nt	nt	nt
Fc1ccc(-c2ccc(C3[C@@H]4CN(Cc5ccccc5)C[C@H]3N4)cc2)cc1 (some centres not stated)	75!	nt	78!	nt	i	nt
Cc1cccc(-c2ccc(C3[C@@H]4CN(Cc5cccnc5)C[C@H]3N4)cc2)c1 (some centres not stated)	i	nt	i	nt	i	nt
Fc1ccc(-c2ccc(C3[C@@H]4CN(Cc5cccc(F)c5)C[C@H]3N4)cc2)cc1 (some centres not stated)	376!	nt	94!	nt	i	nt
C(=C\c1ccc(C2[C@@H]3CN(Cc4nccs4)C[C@H]2N3)cc1)/c1ccccc1 (some centres not stated)	132!	nt	nt	nt	nt	nt
C(=C\c1ccc(C2[C@@H]3CN(Cc4ccccn4)C[C@H]2N3)cc1)/c1ccccc1 (some centres not stated)	i	nt	i	nt	i	nt
Cc1ccc(-c2ccc(C3[C@@H]4CN(Cc5cccc(F)c5)C[C@H]3N4)cc2)cc1 (some centres not stated)	997	nt	54	nt	i	nt
COCC(=O)N(C)C[C@@H]1Oc2ncc(C3=CCCCC3)cc2C(=O)N([C@@H](C)CO)C[C@@H]1C	i	i	i	i	i	i
CC(C)N(C(=O)Cn1cc(S(=O)(=O)CC(=O)NCc2ccccc2)c2ccccc21)C(C)C	i	i	i	i	i	i
Cc1nc(N)ncc1Sc1ccc(Cl)cc1	i	nt	i	nt	i	nt
COc1ccccc1CN1C[C@@H]2N[C@H](C1)C2c1ccc(/C=C/c2ccccc2)cc1 (some centres not stated)	i	nt	68	nt	i	nt
SMILES	INS-1E GSIS act	RAD54 branch	RAD52 inh	UUG fidelity	CASP6 VEID inh	PglD inh
Cc1cccc(-c2ccc(C3[C@@H]4CN(Cc5ccccc5F)C[C@H]3N4)cc2)c1 (some centres not stated)	i	nt	i	nt	i	nt
O=S(=O)(c1ccc(F)cc1)N1C[C@@H]2N[C@H](C1)C2c1ccc(/C=C/c2ccccc2)cc1 (some centres not stated)	i	nt	nt	nt	nt	nt
Cc1ccc(-c2ccc(C3[C@@H]4CN(Cc5cccnc5)C[C@H]3N4)cc2)cc1 (some centres not stated)	i	nt	53!	nt	i	nt
Fc1cccc(CN2C[C@@H]3N[C@H](C2)C3c2ccc(/C=C/c3ccccc3)cc2)c1 (some centres not stated)	471!	nt	nt	nt	nt	nt
Cc1ccc(-c2ccc([C@@H]3[C@@H]4CN(Cc5ccccc5F)C[C@H]3N4)cc2)cc1	83	nt	nt	nt	nt	nt
Cc1ccc(NS(=O)(=O)c2ccc(C(=O)NCc3cccnc3)cc2)cc1	i	i	i	i	i	i
C[C@@H]1CN([C@@H](C)CO)C(=O)c2cc(C#Cc3ccccc3)cnc2O[C@H]1CN(C)S(=O)(=O)c1ccccc1F	i	i	i	i	i	i
O=C1CCC2=C(CCCC2=O)N1	i	nt	i	nt	i	nt
CC1(C)CC(=O)C2=C(C1)NC(=O)CC2	i	nt	i	nt	38	nt
O=C(Nc1ccccc1C(=O)O)c1ccc2c(c1)C(=O)N(c1cccc([N+](=O)[O-])c1)C2=O	i	i	i	i	i	i
COc1ccc(NC(=O)N2CCCCN3[C@@H](CO)[C@@H](c4ccc(C#Cc5ccccn5)cc4)[C@@H]3C2)cc1	i	i	62	i	i	i
COc1ccc(NC(=O)N2CCCCN3[C@H](CO)[C@@H](c4ccc(C#Cc5ccccn5)cc4)[C@@H]3C2)cc1	i	i	i	i	i	i
COc1ccc(NC(=O)N2CCCCN3[C@H](CO)[C@H](c4ccc(C#Cc5ccccn5)cc4)[C@H]3C2)cc1	i	i	66	i	i	i
COc1ccc(NC(=O)Nc2ccc3c(c2)C(=O)N(C)C[C@@H](OC)[C@@H](C)CN[C@H](C)CO3)cc1	i	i	nt	nt	nt	i
CO[C@H]1CN(C)C(=O)c2ccc(NC(=O)c3ccc(Oc4ccccc4)cc3)cc2OC[C@H](C)NC[C@@H]1C	i	i	51	i	i	i
COc1cccc(NC(=O)Nc2ccc3c(c2)OC[C@@H](C)NC[C@H](C)[C@@H](OC)CN(C)C3=O)c1	i	i	76	i	i	i
COc1cccc(NC(=O)Nc2ccc3c(c2)C(=O)N(C)C[C@@H](OC)[C@H](C)CN[C@H](C)CO3)c1	i	i	59	i	i	i
COc1ccc(/C=N/Nc2cc(C)nc(N3CCOCC3)n2)cc1	i	nt	i	nt	i	nt
COc1ccc(NS(=O)(=O)c2cccc(C(=O)NNC(=O)c3ccc(NC(C)=O)cc3)c2)cc1	i	i	i	i	i	i
O=[N+]([O-])c1cc2ccccc2c(O)c1O	nt	i	i	i	41	i
O=[N+]([O-])c1cc(-c2ccccc2)cc([N+](=O)[O-])c1O	i	i	i	i	i	i

Source: PubChem
